Experimental data from US20130274233A1, “MODULATORS OF HEDGEHOG SIGNALING PATHWAY” (priority 2012, published 2013).

Experiments:
[1] = system: Hh pathway activity; assay: Gli-luciferase reporter assay, Hh pathway activation by compound alone (NIH/3T3 cells); type: cell-based; conditions: FA at high concentrations
Procedure: ShhLightII cells and SmoM2/LightII cells were cultured and treated in 96 well assay plates (Corning) and incubated with Duo-Glo luciferase substrates (Promega) to sequentially measure firefly and renilla luciferase activity. Smo, or GFP, expression plasmids were co-transfected into 3T3 cells together with a Gli-responsive firefly reporter and a TK-renilla luciferase reporter contruct to monitor effects of Smo overexpression. Co-transfection of the two reporter constructs was conducted in assays measuring Hh pathway activity in suFU−/− cells. Wnt activity was measured following co-transfection of a Top-flash and renilla luciferase reporter. In both Hh and Wnt activity assays, renilla luciferase reporter activity, or mass of protein, was used to normalize expression values. Luciferase signal was read by TopCount NX Microplate Scintillation and Luminescence Counter (Perkin Elmer). Quantitative PCR probes for Ptch1, Gli1, and β-actin were purchased from Applied Biosystems. Reactions and measurements were performed using on an Applied Biosystems 7900HT at Harvard FAS Center of System Biology. β-actin was used to normalize Ptch1 and Gil1 values.

[2] = system: SmoM2; assay: Gli-luciferase reporter induced by SmoM2::GFP overexpression (SmoM2/LightII cells); type: cell-based; conditions: SmoM2 versus wild-type Smo
Source text: NIH/3T3 cells were maintained in DMEM containing 10% (v/v) calf serum, penicillin, streptomycin, and L-glutamine. HEK293, L, cos 7, and suFU−/− mouse embryonic fibroblast cells were maintained in DMEM containing 10% (v/v) fetal bovine serum, penicillin, streptomycin, and L-glutamine. Smo::EGFP, SmoM2::GFP, and Ivs::tagRFPT were cloned into pBabe to generate retroviral particles for infection. Smo::EGFP/Ivs::tagRFPT and SmoM2::GFP/Ivs::tagRFPT stable cell lines were generated through viral infection of NIH/3T3^12. A ShhLightII Gli reporter cell line was obtained from the American Type Culture Collection (ATCC) and used in luciferase reporter assays to measure Hh pathway activity. […]
Hh activity assays were performed using ShhLightll cells, Smo/Lightll cells, SmoM2/Lightll cells, and suFU−/− mouse embryonic fibroblasts. In the suFU−/− cells, Hh activity was measured after co-transfection with Gli driven firefly luciferase and TK-renilla luciferase reporters^41. Wnt activity was measured in 293 cells co-transfected with Top-flash and TK-renilla luciferase reporters^42. Cells were cultured and treated in 96 well assay plates (Corning) and incubated with Duo-Glo luciferase substrates (Promega) to measure firefly and renilla luciferase activity sequentially using a Top Count NX Microplate Scintillation and Luminescence Counter (Perkin Elmer). […]

CC1=C2C[C@H]3[C@@H](CC=C4C[C@@H](O)CC[C@@]43C)[C@@H]2CC[C@]12O[C@@H]1C[C@H](C)CN[C@H]1[C@H]2C [Cyc, Cyclopamine]
effect on FA induced activation of the Hh pathway [1]: blocked | IC50's for SmoM2 relative to IC50's for wildtype Smo [2]: at least an order of magnitude higher
